# Reference: BindingDB's records for doi:10.1016/s0024-3205(00)00911-5 (Mayo Foundation, 2000)
# The chains behind the UniProt entries cited, without tags or fusion partners. Where a name states a change or a piece, a line headed by the entry shows the natural chain unless it says otherwise.
# UniProt P08913, whole entry: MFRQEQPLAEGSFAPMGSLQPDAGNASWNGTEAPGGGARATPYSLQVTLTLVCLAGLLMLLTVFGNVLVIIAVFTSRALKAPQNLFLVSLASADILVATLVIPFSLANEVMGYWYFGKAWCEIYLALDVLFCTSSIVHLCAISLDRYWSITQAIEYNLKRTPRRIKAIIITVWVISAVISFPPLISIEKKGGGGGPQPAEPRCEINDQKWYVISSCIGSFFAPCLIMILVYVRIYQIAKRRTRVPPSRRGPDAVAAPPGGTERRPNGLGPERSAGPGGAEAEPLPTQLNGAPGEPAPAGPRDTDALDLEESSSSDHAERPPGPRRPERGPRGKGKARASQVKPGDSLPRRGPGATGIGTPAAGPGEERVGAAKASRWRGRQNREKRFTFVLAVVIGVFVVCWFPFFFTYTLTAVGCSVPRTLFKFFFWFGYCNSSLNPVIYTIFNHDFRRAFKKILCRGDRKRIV
# UniProt P28221: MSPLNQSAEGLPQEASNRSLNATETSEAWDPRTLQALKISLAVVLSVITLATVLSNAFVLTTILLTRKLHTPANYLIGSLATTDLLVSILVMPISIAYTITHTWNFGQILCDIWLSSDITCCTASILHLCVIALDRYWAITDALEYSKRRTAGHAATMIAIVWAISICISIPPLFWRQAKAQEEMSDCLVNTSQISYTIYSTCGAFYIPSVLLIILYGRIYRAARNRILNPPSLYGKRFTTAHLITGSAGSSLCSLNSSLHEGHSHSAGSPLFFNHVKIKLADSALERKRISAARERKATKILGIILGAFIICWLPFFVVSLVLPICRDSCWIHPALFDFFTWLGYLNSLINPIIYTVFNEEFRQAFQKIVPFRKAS
# How the values were obtained:
# [1] = molecular target: Alpha-2A adrenergic receptor (Homo sapiens, UniProt P08913)
# [2] = molecular target: 5-hydroxytryptamine receptor 1D (Homo sapiens, UniProt P28221)
SMILES,Ki [1] [nM],Ki [2] [nM]
"O=C1Cc2cc(CCN3CCN(c4nsc5ccccc45)CC3)c(Cl)cc2N1 [5-[2-(4-Benzo[d]isothiazol-3-yl-piperazin-1-yl)-ethyl]-6-chloro-1,3-dihydro-indol-2-one]",154,
"OCCOCCN1CCN(C2=Nc3ccccc3Sc3ccccc32)CC1 [2-[2-(4-dibenzo[b,f][1,4]thiazepin-11-ylpiperazin-1-yl)ethoxy]ethanol]",,560
O=C1NCCN1CCN1CCC(c2cn(-c3ccc(F)cc3)c3ccc(Cl)cc23)CC1 [1-[2-[4-[5-chloro-1-(4-fluorophenyl)-indol-3-yl]-1-piperidyl]ethyl]imidazolidin-2-one],190,
